For twelve compounds, activity change, negative = inhibition results are on record in PubChem BioAssay AID493208 (National Center for Advancing Translational Sciences (NCATS), 2011).

The structures appear in SMILES notation. Only a part is listed here, and it is no random draw. Inconclusive results are not listed. The source made the active and inactive calls. The call rests on the fitted dose curve; in most records, active means well fitted inhibition curve with a large enough effect; inconclusive means small, poorly fitted or top-dose-only effect; inactive means flat fitted curve, though single readings scatter.

A short description of this assay: Acumen qHTS Assay for Inhibitors of the mTORC1 Signaling Pathway in MEF (Tsc2-/-, p53-/-) Cells: Sytravon. Further: nearly all actives have a fitted effect of over 50% in size. The settings on record: phospho-rpS6 immunofluorescence/PI, 24 h; at 38.3 µM (top of the series). The source says: NIH Molecular Libraries Probe Production Centers Network [MLPCN] NIH Chemical Genomics Center [NCGC] MLPCN Grant: NS059428-01 Assay Submitter (PI): Blenis, John; Hoffman, Greg; Harvard University NCGC Assay Overview: The mammalian target of rapamycin (mTOR) is an intracellular serine/threonine kinase Aberrant regulation of mTOR signaling plays a causative role in a number of human diseases, including cancer, benign tumors such as lymphangioleiomyomatosis (LAM) and Tuberous Sclerosis Complex (TSC), and metabolic diseases such as diabetes and obesity. This project aims to identify inhibitors of ribosomal protein S6 (rpS6) phosphorylation. The phosphorylation of rpS6 is a key event downstream of mTOR activation. The assay uses a phospho-specific antibody of phospho-rpS6 to detect inhibitors of mTOR activation. Mutations in the Tsc1 and Tsc2 genes are the underlying genetic lesions responsible for TSC, causing constitutive activation of the mTORC1 pathway and leading to profound effects on cell metabolism. Aberrant metabolism in cancer has recently received significant attention as a target to develop therapeutic agents in the treatment of cancer.1 As Tsc2-/- cells have lost the ability to respond to energy and growth factor deprivation, these cells are unable to properly down regulate cellular biosynthetic processes in response to metabolic stress, and are thus extremely sensitive to glucose deprivation-induced death.2 A central goal of this project is to explore the unique cell survival and metabolic properties of cells with Tsc1 or Tsc2 by screening for compounds that selectively target the Tsc2-/- MEFs by screening both Tsc2-/- and WT MEF cell lines. We hope to better understand these aspects of TSC physiology in order to exploit them for therapeutic benefit.
NCGC Acumen Assay Protocol Summary: For quantitative high throughput analysis of mTORC1 signaling, we developed a cell-based assay for immuno-fluorescence based detection of rpS6 phosphorylation on the Acumen Explorer that will be used a platform for the primary small molecule screen. Mouse embryonic fibroblasts (MEFs) are cultured in 1536-well plates using DMEM + 10% FBS. Twenty-four hrs after plating, test compounds (solubilized in DMSO) are delivered and incubated with the cells for 24 hrs at 37 degree Celsius. Following the incubation, media with compound is aspirated and the cells are fixed in 4% paraformaldehyde (PFA) containing PBS + 0.2% TX-100. Next, PFA is aspirated, cells are washed two times with PBS plus 0.2% TX-100 and the cells are blocked for 1 hr at room temperature (blocking buffer: LiCOR Blocking Buffer plus 0.2% TX-100). […] Cells are washed two times with PBS plus 0.2% TX-100, and stained with 10 uM propidium iodide (PI) for 20-25 minutes for cell number measurement (1:500 dilution of Hoescht staining is also added for IN Cell imaging). The plates are scanned on the Acumen Explorer laser scanning instrument (TTP Labtech) using the 488nm laser for simultaneous excitation of the Alexa-488 and PI. […] The normalized phospho-S6 staining is calculated as the ratio of the integrated Alexa 488 intensity divided by the integrated PI intensity for the single concentration rapamycin control (7.5 nM) and DMSO columns. […] Inhibition of the pathway is defined based on the normalized phospho-S6 intensity in rapamycin treated cells. Active cells are defined as those with a normalized phospho-S6 staining above this threshold, and each treatment is reported as the % positive cells in the well, where thresholds are defined by selecting wells with the highest and lowest signal and differentiating between the % non-active and % active populations. In addition to the pathway specific phospho-S6 endpoint, the number of PI stained cells from the Acumen is recorded as a measure of cell viability. The primary screen was performed with a MEF cell line in a defined genetic background, Tsc2-/-, p53-/- cell line stably transfected with an empty vector control (Tsc2-/- MEF).
For orientation: In qHTS, concentration-response curves come from the screen itself.
On to `O=C(NCC1(N2CCOCC2)CCCCC1)c1ccccc1[N+](=O)[O-]`, for which the activity change, negative = inhibition is inactive: 1.49%. In the case of `O=C(NCC1(N2CCOCC2)CCCCC1)c1ccc([N+](=O)[O-])cc1`, the activity change, negative = inhibition was inactive: -12%.

As for `O=C(NCC1(N2CCOCC2)CCCCC1)c1ccccc1`, the activity change, negative = inhibition was inactive: -5.75%. Next, `Cc1ccccc1C(=O)NCC1(N(C)C)CCCCC1`: inactive: -0.911%; `CC(C)(C)c1ccc(C(=O)NCC2(N3CCOCC3)CCCCC2)cc1`: inactive: -8.52%. On to `COc1cc(C(=O)NCC2(N3CCOCC3)CCCCC2)cc(OC)c1OC`, for which the activity change, negative = inhibition was inactive: -2.01%. As for `COc1ccccc1C(=O)NCC1(N2CCOCC2)CCCCC1`, the activity change, negative = inhibition is inactive: -0.153%. Next, `O=C(NCC1(N2CCOCC2)CCCCC1)c1ccc(Cl)cc1`: inactive: -1.28%; `CCOc1ccc(C(=O)NCC2(N3CCOCC3)CCCCC2)cc1`: inactive: 0%.

As for `CCCOc1cccc(C(=O)NCC2(N3CCOCC3)CCCCC2)c1`, the activity change, negative = inhibition is inactive: -7.01%. The figure for `O=C(NCC1(N2CCOCC2)CCCCC1)c1ccccc1Br` is inactive: -0.948%; for `CCCCOc1ccccc1C(=O)NCC1(N2CCOCC2)CCCCC1` it is inactive: -21.6%.
